Earlier results on one compound are cited in patent US20240374569A1, “HDAC3 INHIBITORS FOR THE TREATMENT OF LANGERHANS CELL HISTIOCYTOSIS AND LANGERHANS CELL SARCOMA” (HENRY FORD HEALTH SYSTEM, priority 2021, published 2024).

For the series, the system named is BRAF (V600)-mutated metastatic melanoma. The settings on record: phase 1 and 2 trials, patients; cited from earlier work.

Turning to `CC(C)(C)c1nc(-c2cccc(NS(=O)(=O)c3c(F)cccc3F)c2F)c(-c2ccnc(N)n2)s1` [Dabrafenib], the safety profile entry was “manageable safety profile”.
